Measured values published in a protein production outcome set (Wang et al. 2014).

Assay: label from the status in PepcDB records

| Sequence | protein production |
| --- | --- |
| MGHHHHHHSHGICLIIDCIGNETELLRDTFTSLGYEVQKFLHLSMHGISQILGQFACMPEHRDYDSFVCVLVSRGGSQSVYGVDQTHSGLPLHHIRRMFMGDSCPYLAGKPKMFFIQNYVVSEGQLEDSSLLEVDGPAMKNVEFKAQKRGLCTVHREADFFWSLCTADMSLLEQSHSSPSLYLQCLSQKLRQERKRPLLDLHIELNGYMYDWNSRVSAKEKYYVWLQHTLRKKLILSYT | failed |
| SSDMEDDFMCDDEEDYDLEYSEDSNSEPNVDLENQYYNSKALKEDDPKAALSSFQKVLELEGEKGEWGFKALKQMIKINFKLTNFPEMMNRYKQLLTYIRSAVTRNYSEKSINSILDYISTSKQMDLLQEFYETTLEALKDAKNDRLWFKTNTKLGKLYLEREEYGKLQKILRQLHQSCQTDDGEDDLKKGTQLLEIYALEIQMYTAQKNNKKLKALYEQSLHIKSAIPHPLIMGVIRECGGKMHLREGEFEKAHTDFFEAFKNYDESGSPRRTTCLKYLVLANMLMKSGINPFDSQEAKPYKNDPEILAMTNLVSAYQNNDITEFEKILKTNHSNIMDDPFIREHIEELLRNIRTQVLIKLIKPYTRIHIPFISKELNIDVADVESLLVQCILDNTIHGRIDQVNQLLELDHQKRGGARYTALDKWTNQLNSLNQAVVSKLA | failed |
